Experimental data: PubChem BioAssay AID604 (The Scripps Research Institute Molecular Screening Center, 2007)
The list shows a part of the results, in another mix than the full data. Some of these compounds have results that are not shown, active ones among them. The source made the active and inactive calls.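 The calls were made as follows: active = inhibition above the screen-wide mean inhibition plus 3 SD (cut at about 18% in these data); inactive = the rest.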

By UniProt entry, the sequences of proteins in these tests, tags left out.
UniProt O75116, whole entry: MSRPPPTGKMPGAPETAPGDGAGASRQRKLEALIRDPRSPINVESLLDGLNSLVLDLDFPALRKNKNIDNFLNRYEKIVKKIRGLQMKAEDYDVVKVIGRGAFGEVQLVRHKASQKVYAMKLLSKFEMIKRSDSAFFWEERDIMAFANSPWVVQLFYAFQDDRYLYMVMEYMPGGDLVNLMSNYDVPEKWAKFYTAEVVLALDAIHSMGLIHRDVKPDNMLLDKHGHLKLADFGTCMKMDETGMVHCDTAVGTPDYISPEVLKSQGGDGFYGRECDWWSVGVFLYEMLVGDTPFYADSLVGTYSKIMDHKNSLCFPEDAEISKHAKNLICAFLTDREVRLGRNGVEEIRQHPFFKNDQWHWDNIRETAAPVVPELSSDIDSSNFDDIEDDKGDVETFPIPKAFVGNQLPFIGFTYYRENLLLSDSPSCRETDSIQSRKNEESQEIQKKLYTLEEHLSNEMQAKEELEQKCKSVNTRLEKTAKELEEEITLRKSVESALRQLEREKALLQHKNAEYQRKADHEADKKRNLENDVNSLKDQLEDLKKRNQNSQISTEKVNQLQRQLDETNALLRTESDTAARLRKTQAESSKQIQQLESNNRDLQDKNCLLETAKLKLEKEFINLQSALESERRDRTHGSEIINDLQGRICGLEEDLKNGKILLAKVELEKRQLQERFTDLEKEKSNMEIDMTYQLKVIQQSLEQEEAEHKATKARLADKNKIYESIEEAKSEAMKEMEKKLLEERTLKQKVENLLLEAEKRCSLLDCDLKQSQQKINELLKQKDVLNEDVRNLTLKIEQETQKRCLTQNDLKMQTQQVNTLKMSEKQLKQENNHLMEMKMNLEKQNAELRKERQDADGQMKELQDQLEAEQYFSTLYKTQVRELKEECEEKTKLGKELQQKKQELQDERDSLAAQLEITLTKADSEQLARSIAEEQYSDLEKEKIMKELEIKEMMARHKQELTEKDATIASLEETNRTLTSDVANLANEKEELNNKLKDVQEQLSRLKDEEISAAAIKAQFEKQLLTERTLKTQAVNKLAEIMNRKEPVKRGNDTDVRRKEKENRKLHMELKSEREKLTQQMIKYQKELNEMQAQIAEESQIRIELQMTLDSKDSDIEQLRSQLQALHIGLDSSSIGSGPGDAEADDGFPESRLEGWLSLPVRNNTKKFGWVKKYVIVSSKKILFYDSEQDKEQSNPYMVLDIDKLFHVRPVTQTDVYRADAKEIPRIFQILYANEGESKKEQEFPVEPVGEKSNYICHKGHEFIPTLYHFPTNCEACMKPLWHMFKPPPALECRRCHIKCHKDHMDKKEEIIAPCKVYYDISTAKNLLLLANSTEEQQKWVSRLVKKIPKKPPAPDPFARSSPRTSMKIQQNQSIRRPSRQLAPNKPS

molecular target: Rho-associated protein kinase 2 (Homo sapiens) (UniProt O75116); assay: inhibitors of human ROCK2 kinase, primary screen, biochemical, high-throughput, luminescence (AID 604); details: purified ROCK2, Kinase-Glo ATP depletion luminescence; at 6 µM; active compounds read high;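 also: plate controls were DMSO wells for no effect and Y-27632 control wells after no-enzyme background subtraction for full effect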

Row | SMILES | inhibition
1 | O=C(OC1CN2CCC1CC2)C(CO)(c1ccccc1)c1ccccc1 (configuration not stated) | inactive: 4.7%
2 | CN(C)c1cccc(C(=O)NCC2(N(C)C)CCCCC2)c1 | inactive: -2.9%
